In one assay the target is AlbA (Klebsiella oxytoca, UniProt Q8KRS7). Kind of assay: Bioluminescence transcription activation (reporter) assay, pCS-pAlbA-ilux + pET15b-ΔHisAlbA in E. coli BL21(DE3). In kind it is cell-based. The conditions noted are these: monitored over 12 hours; both plasmids present. The source says: Having established the operator sequence that is recognized by AlbA, we introduced the 41-bp-long fragment (Fig. 2B) into a reporter vector that encodes the ilux[46] luminescence cassette (pCS-pAlbA-ilux; Fig. S2A and B ^†). To create a system similar to the albA operon in K. oxytoca, the distance between the −10 region and the ribosome binding site was kept intact (16 bp). The ilux cassette includes the optimized bacterial luciferase genes luxCDABE from Photorhabdus luminescens as well as an additional FMN reductase to recycle FMNH2 faster.[46] FMNH2 is oxidized by the luciferase together with an aliphatic aldehyde that is oxidized to a carboxylic acid, which results in the emission of blue-green light (λmax = ∼490 nm). In our reporter system, the addition of albicidin to E. coli cells that contain the reporter plasmid and express albA should activate AlbA to bend the DNA so that transcription is initiated at the pAlbA promoter, leading to production of the ilux proteins and thus light emission. […]
proteins was assessed on SDS-PAGE (Figure S7). […]
Concentrations were determined with a nano-photometer P330 (Implen, Munich, Germany) spectrophotometer using extinction coefficients calculated with the ProtParam tool7 before storage at -80 °C. […]

Another assay addresses T1, E. coli gyrase (Escherichia coli, UniProt P0AES4+P0AES6).
T1 construct: purchased Inspiralis Limited, Norwich, UK
The format is biochemical. Details: key: 0, equal to the activity of albicidin; -, lower than the activity of albicidin; +, higher than the activity of albicidin. The conditions noted are these: 45 nM compound, relative to albicidin, 37 °C, 30 min.

Another assay has as its system M. luteus DSM1790. Put plainly: MIC determination (microdilution). The conditions noted are these: for MIC: Micrococcus luteus, DSM1790, 20 h, read-out: MIC M. Luteus DSM1790. The format is cell-based. Background: In broth dilution the organism is exposed to a series of concentrations in liquid medium.
A further assay deals with M. phlei DSM750. Kind of assay: MIC determination (microdilution). In kind it is cell-based. As for the experimental part: (§1) E. coli growth inhibition assay
(§2) liquid culture were conducted.
(§3) All assays were set up in triplicates.
(§4) scanner (Epson) with argusX.
(§5) overnight at 37 °C, 200 rpm shaking.
(§6) 95 μL of the inoculum were applied
(§7) Previously, the dry antibiotic compounds were
(§8) The antimicrobial effect of the solvent
(§9) Both microdilution trays and agar plates
(§10) DNA-Gyrase inhibition testing
(§11) The final DMSO concentration was 3%.
(§12) AlbA and its mutants were diluted in […]

The next assay relates to E. coli DH5α. Put plainly: MIC determination (microdilution). The format is cell-based. The conditions noted are these: Escherichia coli. On the procedure: as §1, §2, §3, §4, §5, §6, §7, §8, §9, §10, §11, §12
Another assay deals with E. coli DSM 1116. Put plainly: E. coli growth inhibition assay in presence and absence of AlbA. The format is cell-based. The conditions noted are these: 20 h; for E. coli growth inhibition by derivative preincubated with AlbA (evasion of capture): 10 µM compound + 10 µM AlbA (equimolar), 37 °C; for antibacterial activity of derivative alone in growth inhibition assay: 10 µM compound without AlbA. On the procedure:
as §1, §2, §3, §4, §5, §6, §7, §8, §9, §10, §11, §12

A further assay deals with B. subtilis DSM10. Put plainly: MIC determination (microdilution). In kind it is cell-based. The note with it: MHBII, 37 °C, 20 h. On the procedure:
as §1, §2, §3, §4, §5, §6, §7, §8, §9, §10, §11, §12

The subject of a further assay is E. coli BW25113. Kind of assay: MIC determination (microdilution). The conditions noted are these: Escherichia coli, BW25113, 20 h, read-out: MIC E. coli BW25113. The format is cell-based. As for the experimental part:
as §1, §2, §3, §4, §5, §6, §7, §8, §9, §10, §11, §12

The subject of the next assay is E. coli DSM1116. Put plainly: MIC determination (microdilution). The format is cell-based. The note with it: Escherichia coli, DSM1116, 20 h, read-out: MIC E. coli DSM1116. On the procedure: as §1, §2, §3, §4, §5, §6, §7, §8, §9, §10, §11, §12

Converted amounts (≈) assume the structure as drawn. Where only a bound is given, the exact number is not on record here.

As a reminder, the MIC is the lowest concentration that inhibits growth of the organism. In the case of `COc1c(NC(=O)c2ccc(NC(=O)c3ccc(NC(=O)[C@H](CC#N)NC(=O)c4ccc(NC(=O)/C(C)=C/c5ccc(O)cc5)cc4)cc3)c(OC)c2O)ccc(C(=O)O)c1O` [Compound 1, albicidin], the “light emission (luminescence) after addition of compound” value on AlbA is listed as “observed light emission”. In addition, the gyrase inhibition on E. coli gyrase was determined as 0. The minimal inhibitory concentration (MIC) was 2 µg/mL (≈ 2.37 µM) with M. luteus DSM1790; 2 µg/mL (≈ 2.37 µM) with M. phlei DSM750 (Mycolicibacterium phlei, DSM750, 20 h, read-out: MIC M. Phlei DSM750); at most 0.016 µg/mL in the assay on E. coli DH5α.
For guanidino-albicidin [Compound 20], in the assay on E. coli DSM 1116, the “E. coli growth inhibition by derivative preincubated with AlbA (evasion of capture)” value (“E. coli growth inhibition” for short) is reported as “did not perform as well in growth inhibition assays” and the “antibacterial activity of derivative alone in growth inhibition assay” value is “low antibacterial activity”. Further, the gyrase inhibition entry at E. coli gyrase is recorded as “+”. For the same compound, the “MIC M. Luteus DSM1790” value with M. luteus DSM1790 (MHBII, 37 °C, 20 h) was above 8 µg/mL. Besides, the “MIC M. Phlei DSM750” value in the assay on M. phlei DSM750 (MHBII, 37 °C, 20 h) was above 8 µg/mL. Further, the “MIC B. subtilis DSM10” value against B. subtilis DSM10 is above 8 µg/mL.
Turning to `COc1c(NC(=O)c2ccc(NC(=O)c3ccc(NC(=O)[C@H](Cc4cnn[nH]4)NC(=O)c4ccc(NC(=O)c5ccc6cc(O)ccc6c5)cc4)cn3)c(OCCN)c2O)ccc(C(=O)O)c1O` [Compound 13], in the assay on E. coli DSM 1116, the “E. coli growth inhibition” value is listed as “did not perform as well in growth inhibition assays” and the “antibacterial activity of derivative alone in growth inhibition assay” value is listed as “low antibacterial activity”.
`CC(C)Oc1c(NC(=O)c2ccc(NC(=O)[C@H](Cc3c[nH]nn3)NC(=O)c3ccc(NC(=O)c4ccc(C#N)cc4)cn3)cn2)ccc(C(=O)Nc2ccc(C(=O)O)cc2)c1O` [Compound 11]: the “E. coli growth inhibition” value in the assay with E. coli DSM 1116 is on record as “evaded capture by AlbA sufficiently to inhibit E. coli growth, albeit not completely”. Besides, the gyrase inhibition result on E. coli gyrase was “+”. For the same compound, the MIC in the assay on M. luteus DSM1790, in the assay on E. coli BW25113 and in the assay on E. coli DSM1116 was at most 0.016 µg/mL in each case.
Turning to `COc1c(NC(=O)c2ccc(-n3cc(-c4ccc(NC(=O)[C@H](CC#N)NC(=O)c5ccc(NC(=O)/C(C)=C/c6ccc(O)cc6)cc5)cc4)nn3)c(OC)c2O)ccc(C(=O)O)c1O` [Compound 12], in the assay with E. coli DSM 1116, the “E. coli growth inhibition” value was “did not perform as well in growth inhibition assays” and the “antibacterial activity of derivative alone in growth inhibition assay” value is “low antibacterial activity”.
Regarding `COc1c(NC(=O)c2ccc(NC(=O)c3ccc(NC(=O)[C@H](Cc4c[nH]nn4)NC(=O)c4ccc(C#Cc5ccc(C#N)cc5)cc4)cn3)c(OC)c2O)ccc(C(=O)O)c1O` [Compound 10], the “E. coli growth inhibition” value with E. coli DSM 1116 was “evaded capture by AlbA sufficiently to inhibit E. coli growth, albeit not completely”. Besides, on E. coli gyrase, the gyrase inhibition entry is listed as “+”. For the same compound, the MIC with M. luteus DSM1790 was 0.16 µg/mL (≈ 0.191 µM); with E. coli BW25113 it was at most 0.016 µg/mL; with E. coli DSM1116, at most 0.016 µg/mL.

The values are drawn from PMC10189885, “Transcription activation by the resistance protein AlbA as a tool to evaluate derivatives of the antibiotic albicidin” (Chemical Science, 2023).
